Literature values, collected in patent publication US10906946B2, “Thrombin inhibitors” (priority 2015, dated 2021).

Target: clot-bound thrombin (Homo sapiens, UniProt P00734)
Settings: literature value (Berry et al. 1994); read-out: IC50 of inhibition of clot-bound thrombin; cited from earlier work

In the case of `CC1CNc2c(cccc2S(=O)(=O)N[C@@H](CCCNC(=N)N)C(=O)N2CC[C@@H](C)C[C@@H]2C(=O)O)C1` (stereo partly shown) [argatroban], the IC50 is given as 2700 nM.
